Experimental data as given in US20240226232A9, “PROTEIN-BASED THERAPIES FOR OCULAR CONDITIONS” (The Regents of the University of Colorado, A Body Corporate, priority 2021, published 2024).

Assays:
[1] = tested on: Human retinal endothelial cells (HRECs); test: Peptain-1 level in HRECs after treatment with cytokine mixture and peptide, Western blot; type: cell-based; details: 200 μg/mL peptide for three hours, then CM 48 hours
Method: Human retinal endothelial cells (“HRECs”) were treated for three hours with 200 μg/mL of either peptain-1 or a scrambled control peptide in serum-free media. The sequence of the first scrambled control peptide was […] (SEQ ID NO: 4), and the sequence of the second scrambled control peptide was […] (SEQ ID NO: 5). All test cells were then treated with a combination of pro-inflammatory cytokines (IFN-γ at 50 U/mL+TNF-α at 20 ng/mL+IL-1β at 20 ng/mL) for 48 hours.
Cell lysates were prepared using 1×RIPA buffer containing a protease inhibitor cocktail. Protein concentrations of the cell lysates were measured using the BCA method, and 25 μg of protein were used for immunoblotting. To measure HREC apoptosis, the cells were immunostained for active (cleaved) caspase-3, specifically, which is a marker for apoptosis. β-actin antibody staining was used as a control for measuring levels of a housekeeping protein and for calculating protein density compared to caspase-3 levels. The Western blot membrane treated with cleaved-caspase-3 antibody was eventually stripped and probed for peptain-1 antibody as well.

HRECs = test: Penetration of P1 and P1-CPP into HRECs, anti-P1 Western blot; type: cell-based, human; details: 20-hour incubation
Method: A seventh experiment was conducted to determine whether peptain-1 (P1) levels in HRECs were greater after incubating the cells for 20 hours with P1 conjugated to a CPP (P1-CPP) relative to a 20-hour incubation with P1 only.
HREC lysates were prepared using 1×RIPA buffer containing a protease inhibitor cocktail. Protein concentrations of the cell lysates were measured using the BCA method, and 25 μg of protein were used for immunoblotting. P1 levels in cultured HRECs were measured using an anti-P1 antibody after an incubation period. β-actin antibody staining was used as a control for measuring levels of a housekeeping protein and for calculating P1/β-actin density levels.

## DRFSVNLDVKHFSPEELKVKV [peptain-1]
[1]
  density ratio of peptain-1 to β-actin: ~2.25
HRECs
  level of P1 in cells (density of P1 to β-actin): greater than in the control cells
